Earlier results in article PMC10021052, “Novel multivalent S100A8 inhibitory peptides attenuate tumor progression and metastasis by inhibiting the TLR4-dependent pathway” (Cancer Gene Therapy, 2023).

Tested on: tumor-bearing mice
Design: method as in 2 sources, one per row (each row's own in cited_ref): ref [8] = [8]; PMID 26165843; doi:10.1038/onc.2015.211; 8. Deguchi A Tomita T Ohto U Takemura K Kitao A Akashi-Takamura S Eritoran inhibits S100A8-mediated TLR4/MD-2 activation and tumor growth by changing the immune microenvironment Oncogene. 2016 35 1445 ||| ref [4], [8] = [4]; PMID 17128264; doi:10.1038/ncb1507; 4. Hiratsuka S Watanabe A Aburatani H Maru Y Tumour-mediated upregulation of chemoattractants and recruitment of myeloid cells predetermines lung metastasis Nat Cell Biol 2006 8 1369 75 10.1038/ncb150 || [8]; PMID 26165843; doi:10.1038/onc.2015.211; 8. Deguchi A Tomita T Ohto U Takemura K Kitao A Akashi-Takamura S Eritoran inhibits S100A8-mediated TLR4/MD-2 activation and tumor growth by changing the immune microenvironment Oncogene. 2016 35 1445
Details: ref [8]; cited from earlier work

In the case of `CCCCCC/C=C\CCCCCCCCCC(=O)N[C@H]1[C@H](OC[C@H]2O[C@H](OP(=O)(O)O)[C@H](NC(=O)CC(=O)CCCCCCCCCCC)[C@@H](OCCCCCCCCCC)[C@@H]2O)O[C@H](COC)[C@@H](OP(=O)(O)O)[C@@H]1OCC[C@@H](CCCCCCC)OC` [Eritoran], the “tumor progression in tumor-bearing mice, Eritoran” value is given as “inhibited tumor growth through immunomodulation and vascular normalization; also recorded: inhibited S100A8-mediated cell migration and tumor progression in tumor-bearing mice”.

Entries after “also recorded” stand apart in the source; their conditions may differ.
